# Reference: patent US10093938B2, “Regulated switch for gene expression” (The Johns Hopkins University, priority 2014, dated 2018)
# System: BY4741 strain
# Assay: Growth effects of camphor treatment (doubling time)
# Format: cell-based, Saccharomyces cerevisiae
# Conditions: none, 25 μM, 50 μM, 100 μM and 200 μM camphor
# Source text: FIG. 5. Effects of camphor on the growth of BY4741 strain. Doubling time in the presence of various concentrations of camphor. The values are means and standard deviations calculated from eight experiments.
# Based on this, we investigated how yeast cells were affected by camphor.
# Yeast growth was monitored using an Eon Microplate Spectrophotometer with Gen5 software (BioTek, Winooski, Vt.), and 96 Well Clear Flat Bottom plates (Corning, N.Y.) were used to culture the cells. Fresh cells were suspended in the required medium, and then 200 μl of the samples were filled in each well. Typically, the initial value of A600 was 0.20 to 0.25, and the absorbance was measured at 600 nm every 10 minute. Doubling time was determined from cells that were in logarithmic phase.
substance,measurement,value
D-Camphor,"doubling time of BY4741, difference between conditions",no significant difference
